Values quoted from earlier work, collected in patent US20020147137A1, “Medical use of alpha1-acid glycoprotein (AAG) or orosomucoid” (Hamosan Erzeugung Pharmazeutischer Grundstoffe Gesellschaft …, priority 1999, published 2002).

Tested on: isolated perfused rat livers
Conditions: protein added to perfusate; drugs binding to albumin or not; cited from earlier work

human serum albumin
influence on elimination of drugs: accelerate the elimination of drugs
